Source: US9855268B2, “Triazolo[4,5-d]pyrimidine derivatives” (Merck Patent GmbH, priority 2013, dated 2018)

The chains behind the UniProt entries cited, without tags or fusion partners.
UniProt Q9P2K8, whole entry: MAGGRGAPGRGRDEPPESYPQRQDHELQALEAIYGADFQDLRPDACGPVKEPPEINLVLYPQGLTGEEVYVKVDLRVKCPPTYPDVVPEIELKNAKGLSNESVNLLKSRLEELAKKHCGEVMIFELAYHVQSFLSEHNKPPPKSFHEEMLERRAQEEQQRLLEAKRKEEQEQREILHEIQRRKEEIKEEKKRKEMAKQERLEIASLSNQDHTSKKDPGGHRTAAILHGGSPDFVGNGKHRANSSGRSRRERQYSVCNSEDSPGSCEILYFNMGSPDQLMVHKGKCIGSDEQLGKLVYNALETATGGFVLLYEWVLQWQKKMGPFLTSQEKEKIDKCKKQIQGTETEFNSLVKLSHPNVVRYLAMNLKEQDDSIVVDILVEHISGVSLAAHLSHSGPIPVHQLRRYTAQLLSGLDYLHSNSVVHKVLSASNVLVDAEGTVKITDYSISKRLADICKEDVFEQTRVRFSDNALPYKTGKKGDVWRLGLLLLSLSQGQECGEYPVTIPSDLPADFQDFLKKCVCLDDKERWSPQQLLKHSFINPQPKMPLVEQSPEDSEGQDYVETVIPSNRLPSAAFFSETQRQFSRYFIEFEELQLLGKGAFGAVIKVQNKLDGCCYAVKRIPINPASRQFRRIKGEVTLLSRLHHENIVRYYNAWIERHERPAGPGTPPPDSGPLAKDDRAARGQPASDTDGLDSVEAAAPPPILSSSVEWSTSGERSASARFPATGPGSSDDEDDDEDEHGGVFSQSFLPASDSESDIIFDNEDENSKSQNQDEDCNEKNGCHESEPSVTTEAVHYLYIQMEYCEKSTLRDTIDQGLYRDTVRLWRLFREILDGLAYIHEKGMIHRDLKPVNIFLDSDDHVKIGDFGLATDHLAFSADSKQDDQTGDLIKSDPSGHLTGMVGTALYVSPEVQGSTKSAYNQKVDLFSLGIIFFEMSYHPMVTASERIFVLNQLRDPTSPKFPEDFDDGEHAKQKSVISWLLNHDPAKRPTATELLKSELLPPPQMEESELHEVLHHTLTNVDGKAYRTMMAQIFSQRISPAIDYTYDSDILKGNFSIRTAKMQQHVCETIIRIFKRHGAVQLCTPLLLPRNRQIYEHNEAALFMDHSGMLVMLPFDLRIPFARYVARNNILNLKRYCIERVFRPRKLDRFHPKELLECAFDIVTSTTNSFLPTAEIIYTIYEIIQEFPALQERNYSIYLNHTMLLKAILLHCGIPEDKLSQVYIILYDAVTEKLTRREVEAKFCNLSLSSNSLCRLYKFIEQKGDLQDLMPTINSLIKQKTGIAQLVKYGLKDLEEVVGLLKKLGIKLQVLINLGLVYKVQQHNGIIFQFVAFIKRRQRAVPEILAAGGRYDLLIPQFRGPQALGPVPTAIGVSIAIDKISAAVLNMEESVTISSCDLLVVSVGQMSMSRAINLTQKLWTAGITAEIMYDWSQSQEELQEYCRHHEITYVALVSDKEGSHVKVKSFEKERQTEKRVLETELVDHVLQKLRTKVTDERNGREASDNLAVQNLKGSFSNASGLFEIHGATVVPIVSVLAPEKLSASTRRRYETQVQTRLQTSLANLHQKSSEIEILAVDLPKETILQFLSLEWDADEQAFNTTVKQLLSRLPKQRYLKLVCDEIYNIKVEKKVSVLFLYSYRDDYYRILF

Target: GCN2 (Homo sapiens, UniProt Q9P2K8)
Experiment: GCN2 enzyme assay (TR-FRET Lanthascreen, GFP-eIF2alpha phosphorylation)
Assay type: biochemical
Conditions: read-out: IC50 GCN2 (enzyme assay); 10 μM ATP, 80 nM GFP-eIF2a, 30 nM GCN2

COc1ccc(-n2nnc3cnc(NC4CCC(O)C4)nc32)cc1 (single isomer, unassigned)
IC50: < 1 µM
